Results taken from ChEMBL document CHEMBL1148248.

Chains of the proteins cited; added tags and fusions are not shown.
UniProt P09874, whole entry: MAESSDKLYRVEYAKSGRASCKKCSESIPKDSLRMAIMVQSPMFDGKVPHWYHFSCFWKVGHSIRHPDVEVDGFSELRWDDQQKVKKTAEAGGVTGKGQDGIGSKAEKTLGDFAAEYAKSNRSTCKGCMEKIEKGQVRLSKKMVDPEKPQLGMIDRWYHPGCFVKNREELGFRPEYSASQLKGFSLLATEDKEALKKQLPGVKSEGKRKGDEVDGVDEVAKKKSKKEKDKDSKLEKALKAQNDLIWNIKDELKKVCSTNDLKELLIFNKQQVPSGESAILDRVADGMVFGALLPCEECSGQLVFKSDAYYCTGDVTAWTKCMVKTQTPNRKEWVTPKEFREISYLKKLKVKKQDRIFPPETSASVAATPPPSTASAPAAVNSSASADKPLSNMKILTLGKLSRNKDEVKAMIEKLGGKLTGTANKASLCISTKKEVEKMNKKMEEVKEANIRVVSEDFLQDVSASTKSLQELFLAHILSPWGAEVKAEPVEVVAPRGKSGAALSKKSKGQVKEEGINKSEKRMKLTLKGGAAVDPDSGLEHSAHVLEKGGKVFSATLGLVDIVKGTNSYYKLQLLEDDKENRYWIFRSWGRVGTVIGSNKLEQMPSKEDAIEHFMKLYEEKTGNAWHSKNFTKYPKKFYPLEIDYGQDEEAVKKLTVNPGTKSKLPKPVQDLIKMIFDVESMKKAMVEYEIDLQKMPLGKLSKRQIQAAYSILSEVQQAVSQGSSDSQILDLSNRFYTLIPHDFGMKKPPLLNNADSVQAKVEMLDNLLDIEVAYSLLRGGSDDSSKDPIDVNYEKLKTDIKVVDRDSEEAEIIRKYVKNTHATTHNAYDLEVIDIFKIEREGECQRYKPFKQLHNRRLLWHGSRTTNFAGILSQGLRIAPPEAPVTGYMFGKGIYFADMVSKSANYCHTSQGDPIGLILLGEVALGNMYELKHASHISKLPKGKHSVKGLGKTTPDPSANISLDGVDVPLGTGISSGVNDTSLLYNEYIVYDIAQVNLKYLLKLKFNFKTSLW

Biological target: Poly [ADP-ribose] polymerase 1 (Homo sapiens, UniProt P09874)

SMILES	Ki [nM]
COc1ccc(CN(C)c2ccc(-c3nc4c(C(N)=O)cccc4[nH]3)cc2)cc1	5.9
NC(=O)c1cccc2[nH]c(-c3cccc(CN4CCCCC4)c3)nc12	11.7
